One molecule from BindingDB's records for 24657054 can be followed below.

The chains behind the UniProt entries cited, without tags or fusion partners.
UniProt P35372, whole entry: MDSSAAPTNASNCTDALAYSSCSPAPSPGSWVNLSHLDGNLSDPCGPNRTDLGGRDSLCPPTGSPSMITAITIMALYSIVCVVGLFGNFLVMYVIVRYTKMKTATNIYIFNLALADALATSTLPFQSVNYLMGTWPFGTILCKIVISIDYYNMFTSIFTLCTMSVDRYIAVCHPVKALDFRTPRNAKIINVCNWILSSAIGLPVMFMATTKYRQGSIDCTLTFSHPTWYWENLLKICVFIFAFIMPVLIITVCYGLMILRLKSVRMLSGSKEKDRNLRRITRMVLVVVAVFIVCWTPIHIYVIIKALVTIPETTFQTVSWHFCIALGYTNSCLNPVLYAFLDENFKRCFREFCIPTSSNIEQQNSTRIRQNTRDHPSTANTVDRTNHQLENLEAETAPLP
UniProt P41146, whole entry: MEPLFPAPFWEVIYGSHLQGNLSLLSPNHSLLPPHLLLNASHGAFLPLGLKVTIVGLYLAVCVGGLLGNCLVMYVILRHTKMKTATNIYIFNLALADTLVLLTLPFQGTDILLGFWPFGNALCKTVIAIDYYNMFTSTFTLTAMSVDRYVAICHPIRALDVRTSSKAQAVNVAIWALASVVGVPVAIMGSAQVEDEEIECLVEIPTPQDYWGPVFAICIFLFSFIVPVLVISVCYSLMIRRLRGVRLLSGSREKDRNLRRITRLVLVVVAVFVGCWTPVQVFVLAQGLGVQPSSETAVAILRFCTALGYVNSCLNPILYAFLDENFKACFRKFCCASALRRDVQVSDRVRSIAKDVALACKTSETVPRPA

The target of test [1] is T1, Mu-type opioid receptor (Homo sapiens, UniProt P35372). Description: Agonist activity at human mu opioid receptor transfected in CHO cell membranes assessed as stimulation of [35S]GTPgammaS binding after 60 mins by scintillation counting analysis. (GTPγS resists hydrolysis and so accumulates on activated G proteins.)
The target of test [2] is T2, Nociceptin receptor (Homo sapiens, UniProt P41146). Description: Displacement of [3H]N/OFQ from human nociceptin opioid receptor transfected in CHO cell membranes.
Test [3] has as its target T1, Mu-type opioid receptor. Description: Displacement of [3H]DAMGO from human mu opioid receptor transfected in CHO cell membranes after 60 mins. In general terms: Displacement assays read how much labelled ligand stays bound in the presence of the test substance.
Test [4] has as its target T2, Nociceptin receptor. Kind of test: Agonist activity at human nociceptin opioid receptor transfected in CHO cell membranes assessed as stimulation of [35S]GTPgammaS binding after 60 mins by scintillation counting analysis.

Usually EC50 stands for the concentration that produces a half-maximal response. In general, Ki refers to a dissociation constant, usually derived from enzyme kinetics or from competition with a known ligand. Read a high Ki as weaker binding. In the case of `CCC1C(=O)N(C2CCN([C@H]3CC[C@@H]4CCCc5cccc3c54)CC2)c2ccccc21` (some centres undefined), the 50% effective concentration (EC50) in test [1] was 57 nM; in test [4] it was 22 nM. Moreover, the inhibition constant (Ki) in test [2] stood at 3.2 nM; in test [3], 8.2 nM.
